Data reported in US8981094B2, “Piperidine/piperazine derivatives” (Janssen Pharmaceutica N.V., priority 2007, dated 2015).

The chains behind the UniProt entries cited, without tags or fusion partners.
UniProt O75907, whole entry: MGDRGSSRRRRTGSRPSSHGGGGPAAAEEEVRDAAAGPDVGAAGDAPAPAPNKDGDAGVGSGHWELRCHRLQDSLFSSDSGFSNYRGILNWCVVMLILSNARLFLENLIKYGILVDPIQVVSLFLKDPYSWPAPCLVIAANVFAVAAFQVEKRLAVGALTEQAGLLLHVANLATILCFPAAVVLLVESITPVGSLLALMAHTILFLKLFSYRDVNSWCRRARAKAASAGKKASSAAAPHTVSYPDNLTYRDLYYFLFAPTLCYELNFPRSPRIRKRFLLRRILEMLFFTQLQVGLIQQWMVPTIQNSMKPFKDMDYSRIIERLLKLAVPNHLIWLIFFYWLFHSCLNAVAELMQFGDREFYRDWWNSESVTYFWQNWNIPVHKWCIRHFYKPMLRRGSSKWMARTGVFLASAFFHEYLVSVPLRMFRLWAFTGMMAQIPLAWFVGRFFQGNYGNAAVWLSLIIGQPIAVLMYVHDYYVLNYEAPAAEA

These compounds were tested against human DGAT1 (Homo sapiens, UniProt O75907) (assay: Inhibition of DGAT1 activity, FlashPlate assay with DGAT1 membrane preparations and substrate micelles). Settings: pIC50 = -logIC50, IC50 values expressed in M.
Source text: A) Measurement of Inhibition of DGAT1 Activity by the Present Compounds
The inhibiting activity of the present compounds on DGAT1 activity was screened in a single well procedure assay using DGAT1 comprising membrane preparations and DGAT1 substrate comprising micelles and determining formed radio-active triacylglycerol coming in close proximity of a flashplate surface by radio luminescence.
Said assay is described in full detail in WO2006/067071, the content of which is incorporated herein by reference.
By DGAT1 activity is meant the transfer of coenzyme A activated fatty acids to the 3-position of 1,2-diacylglycerols, thus forming a triglyceride molecule, by enzyme DGAT1.
human DGAT1 (NM012079.2) was cloned into the pFastBac vector, containing translation start, a FLAG-tag at the N-terminus as described in literature and a viral Kozak sequence (AAX) preceding the ATG to improve expression in insect cells. Expression was done as described in literature (Cases, S., Smith, S. J., Zheng, Y., Myers H. M., Lear, S. R., Sande, E., Novak, S., Collins, C., Welch, C. B., Lusis, A. J., Erickson, S. K. and Farese, R. V. (1998) Proc. Natl. Acad. Sci. USA 95, 13018-13023.) using SF9 cells.
72 h transfected SF9 cells were collected by centrifugation (13000 rpm-15 min-4° C.) and lysed in 2×500 ml lysisbuffer (0.1M Sucrose, 50 mM KCl, 40 mM KH2PO4, 30 mM EDTA pH 7.2. Cells were homogenized by cell disruptor. After centrifugation 1380 rpm-15 min-4° C. (SN discarded), pellet was resuspended in 500 ml lysisbuffer and total cell membranes collected by ultracentrifugation at 34000 rpm(100 000 g) for 60 min (4° C.). The collected membranes were resuspended in lysis buffer, divided in aliquots and stored with 10% glycerol at −80° C. until use.
Add 1 ml dioleoyl-sn-glycerol (10 mg/ml) to 10 ml of L-α-phosphatidylcholine (1 mg/ml) and 10 ml of L-α-phosphatidyl-L-serine (1 mg/ml) in a thick glass recipient. Evaporate under nitrogen and put on ice for 15 minutes. Reconstitute in 10 ml Tris/HCl (10 mM, pH 7.4) by sonication on ice. The sonification process consists of sonification cycles of 10 seconds in the sonification bath followed by 10 seconds cool down on ice and repeating this sonification cycle till a homogeneous solution is obtained (takes about 15 minutes). The thus obtained micelles are stored at −20° C. till later use and contain DAG at a final concentration of 1.61 mM.
c) Substrate mix (for 1 384 well plate=3840 μl) • 612 μl micelles stock (51 μM final) • 16.6 μl oleoylCoA 9.7 mM • 23 μl [^3H]-oleoylCoA (49 Ci/mmol, 500 μCi/ml) • 3188.4 μl Tris pH 7.4, 10 mM
d) Enzyme mix (for 1 384 well plate=3520 μl) (5 μg/ml) • Add 11.73 μl of DGAT membrane stock (1500 μg/ml stock) to 3508 μl assay buffer.
e) Stop mix (for 1 384 well plate=7.68 ml) (250 mM) • Add 384 μl of N-ethylmaleimide (5M) to 3.456 ml DMSO 100%, and further dilute 3.84 ml of said solution with 3.84 ml DMSO 10%.
DGAT activity in membrane preparations was assayed in 50 mM Tris-HCl (pH 7.4), 150 mM MgCl2, 1 mM EDTA and 0.2% BSA, containing 50 μM DAG, 32 μg/ml PC/PS and 8.4 μM [^3H]-oleoylCoA (at a specific activity of 30 nCi/well) in a final volume of 50 μl in 384-well format using the red shifted Basic Image FlashPlate™ (Perkin Elmer Cat.No. SMP400).
In detail, 10 μl enzyme mix and 10 μl substrate mix were added to 30 μl of assay buffer, optionally in the presence of 1 μl DMSO (blank and controls) or 1 μl of the compound to be tested. This reaction mixture was incubated for 120 minutes at 37° C. and the enzymatic reaction stopped by adding 20 μl of the stop mix. The plates were sealed and the vesicles allowed to settle overnight at room temperature. Plates were centrifuged for 5 minutes at 1500 rpm and measured in Leadseeker. […]

Point of comparison: `COCCNCC(=O)Nc1ccc(C2CCN(C(=O)Nc3c(Cl)cccc3Cl)CC2)cc1`, pIC50 6.08. Against it:
- COc1cccc(CNC(=O)c2ccc(N3CCN(C(=O)Cc4c(Cl)cccc4Cl)CC3)cc2)c1 — higher, 7.37
- O=C(CCc1ccccc1)Nc1ccc(N2CCN(C(=O)Nc3c(Cl)cccc3Cl)CC2)cc1 — higher, 7.82
- CC(C)OCCCNC(=O)c1ccc(N2CCN(C(=O)Cc3c(Cl)cccc3Cl)CC2)cc1 — higher, 6.38
- COc1ccc(CC(=O)Nc2ccc(N3CCN(C(=O)C(=O)c4c(Cl)cccc4Cl)CC3)cc2)cc1 — higher, 6.51
- CC(=O)NCCC(=O)Nc1ccc(C2CCN(C(=O)Nc3c(Cl)cccc3Cl)CC2)cc1 — lower, 5.30
- CNC(C)c1cc(Cl)c(NC(=O)N2CCN(c3ccc(NC(=O)CCCc4ccccc4)cc3)CC2)c(Cl)c1 (single isomer, unassigned) [287] — higher, 8.00
- O=C(NCC1CCOCC1)c1ccc(N2CCN(C(=O)Cc3c(Cl)cccc3Cl)CC2)cc1 — lower, 5.81
- O=C(NCc1ccccn1)c1ccc(N2CCN(C(=O)Cc3c(Cl)cccc3Cl)CC2)cc1 — lower, 5.65
- COc1ccc(CNC(=O)c2ccc(N3CCN(C(=O)Cc4c(Cl)cc(C)nc4Cl)CC3)cc2)cc1 — higher, 6.50
- CN(C)C(=O)CCC(=O)Nc1ccc(C2CCN(C(=O)Nc3c(Cl)cccc3Cl)CC2)cc1 — lower, 5.40
- O=C(CCCc1ccccc1)Nc1ccc(N2CCN(C(=O)[C@H](O)c3ccccc3Cl)CC2)cc1 — higher, 7.01
- O=C(NCc1cccs1)c1ccc(N2CCN(C(=O)Cc3c(Cl)cccc3Cl)CC2)cc1 — higher, 6.57
- O=C(CCCc1ccccc1)Nc1ccc(N2CCN(C(=O)C(O)c3c(Cl)cccc3Cl)CC2)cc1 (single isomer, unassigned) [329] — higher, 6.86
- O=C(NCc1ccccc1Cl)c1ccc(N2CCN(C(=O)Cc3c(Cl)cccc3Cl)CC2)cc1 — higher, 7.13
- CCCN(C)CC(=O)Nc1ccc(C2CCN(C(=O)Nc3c(Cl)cccc3Cl)CC2)cc1 — within 0.2 log units, 6.13
- CC(=O)N(C)CC(=O)Nc1ccc(N2CCN(C(=O)Nc3c(Cl)cccc3Cl)CC2)cc1 — higher, 6.44
- O=C(CCCc1ccccc1)Nc1ccc(N2CCN(C(=O)C(O)c3ccc(Cl)cc3)CC2)cc1 (stereo not shown) — lower, 5.33
- O=C(CCN(Cc1cccc(Cl)c1)S(=O)(=O)c1ccccc1[N+](=O)[O-])Nc1ccc(N2CCN(C(=O)Nc3c(Cl)cccc3Cl)CC2)cc1 — higher, 6.72
- COc1cc(Cl)c(NC(=O)N2CCN(c3ccc(NC(=O)CNc4ccc(C)cc4C)cc3)CC2)c(OC)c1 — higher, 7.72
- COc1ccc(CNC(=O)c2ccc(N3CCN(C(=O)Cc4c(Cl)cccc4Cl)CC3)cc2)cc1 — higher, 7.20
- COc1ccc(CC(=O)Nc2ccc(N3CCN(C(=O)Nc4c(Cl)cc(CN5CCN(C(C)=O)CC5)cc4Cl)CC3)cc2)cc1 — higher, 8.46
- COc1ccc(CC(=O)Nc2ccc(N3CCN(C(=O)NCc4ccccc4Cl)CC3)cc2)cc1 — lower, 5.39
- CCN1CCN(Cc2cc(Cl)c(NC(=O)N3CCN(c4ccc(NC(=O)Cc5ccc(OC)cc5)cc4)CC3)c(Cl)c2)CC1 — higher, 8.10
- COCCNCC(=O)Nc1ccc(N2CCN(C(=O)Nc3c(Cl)cccc3Cl)CC2)cc1 — lower, 5.49
- O=C(CCCc1ccccc1)Nc1ccc(N2CCN(C(=O)C(O)c3c(Cl)cccc3Cl)CC2)cc1 (single isomer, unassigned) [334] — higher, 6.33
- C#CCN(C)CC(=O)Nc1ccc(C2CCN(C(=O)Nc3c(Cl)cccc3Cl)CC2)cc1 — within 0.2 log units, 6.25
- CC(CNC(=O)OC(C)(C)C)C(=O)Nc1ccc(C2CCN(C(=O)Nc3c(Cl)cccc3Cl)CC2)cc1 (stereo not shown) — higher, 7.64
- Cc1cc([N+](=O)[O-])ccc1NC(=O)N1CCN(c2ccc(NC(=O)CCCc3ccccc3)cc2)CC1 — lower, 5.75
- O=C(CCCC(=O)OCc1ccc(Cl)cc1)Nc1ccc(N2CCN(C(=O)Nc3c(Cl)cc(CN4CCCCC4)cc3Cl)CC2)cc1 — higher, 8.31
- O=C(CCN(CC1CC1)S(=O)(=O)c1ccccc1[N+](=O)[O-])Nc1ccc(N2CCN(C(=O)Nc3c(Cl)cccc3Cl)CC2)cc1 — higher, 7.68
- CC(C(=O)N1CCN(c2ccc(NC(=O)CCCc3ccccc3)cc2)CC1)c1ccc([N+](=O)[O-])cc1 (stereo not shown) — lower, 5.12
- O=C(NCc1cccc(Cl)c1)c1ccc(N2CCN(C(=O)Cc3c(Cl)cccc3Cl)CC2)cc1 — higher, 7.20
- CNC(C)c1cc(Cl)c(NC(=O)N2CCN(c3ccc(NC(=O)CCCc4ccccc4)cc3)CC2)c(Cl)c1 (single isomer, unassigned) [293] — higher, 7.91
- O=C(CCCc1ccccc1)Nc1ccc(N2CCN(C(=O)[C@@H](O)c3ccccc3Cl)CC2)cc1 — higher, 8.02
- O=C(NCc1ccc(F)cc1)c1ccc(N2CCN(C(=O)Cc3c(Cl)cccc3Cl)CC2)cc1 — higher, 6.93
- CCOC(=O)CCC(=O)Nc1ccc(N2CCN(C(=O)Nc3c(Cl)cccc3Cl)CC2)cc1 — higher, 7.34
- O=C(NCc1ccc(Cl)cc1)c1ccc(N2CCN(C(=O)Cc3c(Cl)cccc3Cl)CC2)cc1 — higher, 6.88
- CN(C)CCCNC(=O)c1cc(Cl)c(NC(=O)N2CCN(c3ccc(NC(=O)CCCc4ccccc4)cc3)CC2)c(Cl)c1 — higher, 6.88
- O=C(NCc1ccccc1)c1ccc(N2CCN(C(=O)Nc3c(Cl)cc(CN4CCCC4)cc3Cl)CC2)cc1 — higher, 6.80
- CCN(CC)CCC(=O)Nc1ccc(N2CCN(C(=O)Nc3c(Cl)cccc3Cl)CC2)cc1 — lower, 5.20
- CN(CCC(=O)Nc1ccc(C2CCN(C(=O)Nc3c(Cl)cccc3Cl)CC2)cc1)C(=O)OC(C)(C)C — higher, 7.58
- O=C(CCN(Cc1ccccc1)S(=O)(=O)c1ccccc1[N+](=O)[O-])Nc1ccc(N2CCN(C(=O)Nc3c(Cl)cccc3Cl)CC2)cc1 — higher, 7.64
- CC(CC(=O)Nc1ccc(C2CCN(C(=O)Nc3c(Cl)cccc3Cl)CC2)cc1)NC(=O)OC(C)(C)C (stereo not shown) — higher, 7.71
- O=C(CCCc1ccccc1)Nc1ccc(N2CCN(C(=O)C(O)c3ccc(Br)cc3F)CC2)cc1 (stereo not shown) — higher, 6.62
- COc1ccc(C(O)C(=O)N2CCN(c3ccc(NC(=O)CCCc4ccccc4)cc3)CC2)cc1 (stereo not shown) — lower, 5.36
